For the assay, the target named is CES2 (Homo sapiens, UniProt O00748).

Protein sequences, listed by entry. Tags and fused reporters are not part of them. Lines headed by an entry give the natural chain unless they say otherwise; changes in a name come on top.
UniProt O00748: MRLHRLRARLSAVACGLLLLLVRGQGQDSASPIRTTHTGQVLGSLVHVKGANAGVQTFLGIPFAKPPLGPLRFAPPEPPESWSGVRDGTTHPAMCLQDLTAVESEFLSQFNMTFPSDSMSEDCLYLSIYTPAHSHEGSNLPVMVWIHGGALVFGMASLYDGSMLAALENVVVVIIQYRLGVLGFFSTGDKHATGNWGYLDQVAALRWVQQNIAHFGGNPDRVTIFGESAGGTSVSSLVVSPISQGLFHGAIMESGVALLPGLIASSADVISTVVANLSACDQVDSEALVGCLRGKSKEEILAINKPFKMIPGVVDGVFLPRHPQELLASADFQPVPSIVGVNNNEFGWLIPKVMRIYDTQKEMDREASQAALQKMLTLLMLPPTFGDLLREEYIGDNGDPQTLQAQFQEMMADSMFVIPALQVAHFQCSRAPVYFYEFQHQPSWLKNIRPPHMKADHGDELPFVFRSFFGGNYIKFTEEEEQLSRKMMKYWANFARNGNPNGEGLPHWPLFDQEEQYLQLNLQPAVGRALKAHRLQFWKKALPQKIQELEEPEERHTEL

Compound `O=C1C(=O)N(CCN2C(=O)C(=O)c3ccccc32)c2ccccc21` [1-[2-(2,3-dioxo-2,3-dihydro-1H-indol-1-yl)ethyl]-2,3-dihydro-1H-indole-2,3-dione] showed a Ki of 1.54 µM.

The Ki is a dissociation constant, usually derived from enzyme kinetics or from competition with a known ligand.

Values taken from BindingDB's records for doi:10.1021/jm061471k (St. Jude Research Hospital, 2007).
